Measured affinities in a library of Ab-14 heavy chain variants

Target peptide (SARS-CoV-2 spike, HR2 region): PDVDLGDISGINAS

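The variants were designed computationally from a first round of random CDR variants and then made and measured. Several design methods are mixed in this list. In AlphaSeq, yeast of one mating type display the scFv and yeast of the other type display the target. After mating in shaken culture at 30 °C for 16 h, diploids were selected and their barcode pairs sequenced. The ratio of observed to expected reads was calibrated, replicate by replicate, on BCL2-family standards whose Kd was known from biolayer interferometry. The assay was run in six technical replicates.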

Parent: Ab-14, a human scFv built as VH, three GGGGS repeats, VL. Only the CDRs of the heavy chain vary.
VH: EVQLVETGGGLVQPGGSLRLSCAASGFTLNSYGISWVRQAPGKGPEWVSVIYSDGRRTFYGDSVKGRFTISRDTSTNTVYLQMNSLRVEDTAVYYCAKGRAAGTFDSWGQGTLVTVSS
VL: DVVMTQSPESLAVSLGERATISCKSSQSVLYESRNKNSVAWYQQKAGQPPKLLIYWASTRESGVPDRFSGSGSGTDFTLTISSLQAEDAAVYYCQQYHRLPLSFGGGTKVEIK

The parent's heavy chain CDRs are GFTLNSYGIS, VIYSDGRRTFYGDSVK, GRAAGTFDS; each variant's own CDRs replace them letter for letter.
This list holds designs with more than six substitutions.
Each Kd is an estimate from the mating assay, the geometric mean of the replicates in which the pair was seen; lower is stronger.
An entry "nd" has no value in the source: the pair was not observed among the diploids in any replicate. This suggests poor binding but is not conclusive.
Order: sorted from the lowest average up, undetected variants last.

* GFDLDEYGIS, VIYADGQRTSYADSVK, GENAGTFDV = 65 pM (6 of 6 replicates; controls 0 of 18)
* GFDLNEYGIS, VIYADGSRTFYADSVK, GNVAGTFDL = 140 pM (6 of 6 replicates; controls 0 of 18)
* GFDLNEYGIS, VIYADGRRTAYADSVK, GNLAGTFDT = 180 pM (6 of 6 replicates; controls 1 of 18)
* GFDLNEYGIS, VIYADGQRTAYSDNVK, GEVAGTFDV = 190 pM (6 of 6 replicates; controls 0 of 18)
* GFDLNEYGIS, VIYADGRRTAYADSVK, GNLAGTFDQ = 200 pM (6 of 6 replicates; controls 0 of 18)
* GFDLNEYGIS, VIYADGQRTAYIDSVK, GNVAGTFDI = 210 pM (6 of 6 replicates; controls 0 of 18)
* GFDLNEYGIS, VIYADGKRTAYVDDVK, GQNAGTFDV = 230 pM (6 of 6 replicates; controls 0 of 18)
* GFDLNEYGIS, VIYADGVRTAYIDSVK, GEVAGTFDV = 300 pM (6 of 6 replicates; controls 0 of 18)
* GFDLNEYGIS, VIYADGKRTAYSDSVK, GEVAGTFDQ = 320 pM (6 of 6 replicates; controls 0 of 18)
* GFNLEDYGIS, VIYADGRRTFYADSVK, GNVAGTFDV = 370 pM (6 of 6 replicates; controls 0 of 18)
* GFNLNEYGIS, VIYADGMRTFYSDSVK, GEAAGTFDV = 400 pM (6 of 6 replicates; controls 0 of 18)
* GFDLNEYGIS, VIYADGQRTAYADSVK, GNEAGTFDV = 460 pM (6 of 6 replicates; controls 0 of 18)
* GFDLNEYGIS, VIYADGQRTAYADKVK, GNVAGTFDV = 560 pM (6 of 6 replicates; controls 0 of 18)
* GFDLNEYGIS, VIYADGQRTAYADSVK, GKHAGTFDS = 620 pM (6 of 6 replicates; controls 0 of 18)
* GFDLDEYGIS, VIYADGMRTAYADSVK, GETAGTFDL = 700 pM (6 of 6 replicates; controls 0 of 18)
* GFNLNEYGIS, VIYADGRRTFYADSVK, GGQAGTFDV = 710 pM (5 of 6 replicates; controls 0 of 18)
* GFDLNEYGIS, VIYADGRRTFYSDSVK, GEIAGTFDL = 740 pM (6 of 6 replicates; controls 1 of 18)
* GFDLNEYGIS, VIYADGRRTFYTDSVK, GNIAGTFLV = 740 pM (6 of 6 replicates; controls 0 of 18)
* GFDLNEYGIS, VIYADGKRTAYADKVK, GENAGTFDI = 840 pM (6 of 6 replicates; controls 0 of 18)
* GFDLNEYGIS, VIYADGRRTAYADSVK, GNNAGTFDS = 1.5 nM (6 of 6 replicates; controls 0 of 18)
* GFDLNEYGIS, VIYADGRRTFYSDSVK, GQTGGTFDM = 2.0 nM (6 of 6 replicates; controls 0 of 18)
* GFDLNEYGIS, VIYADGQRTFYTDAVK, GEVAGTFDS = 2.2 nM (6 of 6 replicates; controls 0 of 18)
* GFDLNEYGIS, VIYADGKRTAYADSVK, GVNAGTFDV = 5.8 nM (6 of 6 replicates; controls 1 of 18)
* GDVLDEYGIS, VIYADGRRTFYTQDVK, GKKAGSLSV = 230 nM (1 of 6 replicates; controls 0 of 18)
* GFELDEMGIS, VIYADGKRAAYSDNVK, GDNRGIFHL = 1.1 µM (1 of 6 replicates; controls 0 of 18)
* GFDLNEYGIS, VIYADGVRVAYQNQVK, GNIDGSFTF = nd (0 of 6 replicates; controls 0 of 18)
* GFDINEYGIS, VIYADGSRTAYSKNFK, GEDGIMLLF = nd (0 of 6 replicates; controls 0 of 18)
* GFNLDEYGIS, VIYADGSRQFYVNTFK, GKDVGLNVM = nd (0 of 6 replicates; controls 0 of 18)
* GEDLDEYGIS, VIYADGVRTVAQDKVK, GELSGNFAQ = nd (0 of 6 replicates; controls 0 of 18)
* GFDVNEYGIS, VIYADGVRRTYQDAVK, GNLSGVVDV = nd (0 of 6 replicates; controls 1 of 18)
* GFDLNSYGIS, VIYSAGRDTFFGDSDK, GRAAGWFNS = nd (0 of 6 replicates; controls 0 of 18)
* GFNINEYGIS, VIYADGIRTHYVDDVK, GKHTGVKMD = nd (0 of 6 replicates; controls 1 of 18)
* GMNLDEYGIS, VIYADGLRYEYANTVK, GEMAGFFMD = nd (0 of 6 replicates; controls 0 of 18)
* GFDIEEYGIS, VIYADGQRTMYKPTVK, GNHTGLVDI = nd (0 of 6 replicates; controls 0 of 18)
* GFDINEYGIS, VIYADGSRQAYADNVK, GFWGCVLYV = nd (0 of 6 replicates; controls 0 of 18)

Extract of 4 entries:

| CDR-H1 | CDR-H2 | CDR-H3 | Kd | replicates with signal | control signals |
|---|---|---|---|---|---|
| GFDLNEYGIS | VIYADGVRTAYIDSVK | GEVAGTFDV | 300 pM | 6/6 | 0/18 |
| GFDLDEYGIS | VIYADGMRTAYADSVK | GETAGTFDL | 700 pM | 6/6 | 0/18 |
| GFDLNEYGIS | VIYADGSRTFYADSVK | GNVAGTFDL | 140 pM | 6/6 | 0/18 |
| GFELDEMGIS | VIYADGKRAAYSDNVK | GDNRGIFHL | 1.1 µM | 1/6 | 0/18 |

The authors' rule: three or more of the six replicates give a measured affinity, fewer mean a poor binder.
Background: pairings of all heavy chain designs with three empty control strains gave a value in 1% of cases (median 120 nM, 5th percentile 7.0 nM). Values in that range, when seen in few replicates, are hard to tell from nonspecific mating. Also given: how often the same scFv was detected with the empty control strains.
The parent sequence was in this pool as ten entries: three were never detected, three once, and four in most replicates, with averages from 2.2 nM to 240 nM.
Values of this round are not directly comparable with the first-round values of the same sequences.

From the AlphaSeq antibody data of Li et al. 2023 (doi:10.1038/s41467-023-39022-2), copy in the FLAb collection.